From patent publication US20220252575A1, “SCREENING METHOD AND TOXICITY EVALUATION METHOD” (Public University Corporation Yokohama City University, priority 2019, published 2022)

Assays:
[1] = system: plural cells other than vascular endothelial cell from pluripotent stem cell; assay: MAC deposition experiment in plural cells other than vascular endothelial cell induced from pluripotent stem cell; type: cell-based, human; conditions: complement having activity, regardless of cell type
Method: The present inventors have further studied based on these findings and completed the present invention.
iPS cells (1383D2; Center for iPS Cell Research and Application, Kyoto University) (4000 cells) were seeded on a 96-well plate (corning), and iPS-derived human non-hemogenic endothelial cells were produced on the plate according to the method in the above-mentioned 1-1. The medium for the cells containing a CD59 antibody (1 μg/ml) was added at 100 μl/96 well, and the cells were incubated at 37° C. for 1 hr. Then, an equal amount of the same medium (containing 6% (v/v) human serum [BIOPREDIC Inc. SER018A050F018], 20% (v/v) culture supernatant collected in (1-4), LPS (Lipopolysaccharide) 2 μg/ml) was added to the cell culture medium (therefore, the concentration of human serum in the medium after addition was 3% (v/v), and the concentration of the culture supernatant collected in (1-4) was 10% (v/v)), and the cells were incubated at 37° C. for 24 hr. […] After washing 3 times with PBS(—), and quantitative analysis was performed by a cell analyzer 6500HS (GE Healthcare). The obtained numerical value was calculated as a value relative to the value of 4′,6-diamidino-2-phenylindole (DAPI). […]

[2] = system: iPS cell-derived non-hematopoietic human vascular endothelial cells; assay: Formation of complement membrane attack complex (MAC) in iPS cell-derived vascular endothelial cells with human serum and liver organoid culture supernatant; type: cell-based; conditions: Eculizumab 2.028-676 nano mol/L added simultaneously with serum; 3% human serum, 10% organoid culture supernatant, LPS; 24 hr; MAC immunostaining relative to DAPI (FIG. 2)
Method: iPS cells (1383D2; Center for iPS Cell Research and Application, Kyoto University) (4000 cells) were seeded on a 96-well plate (corning), and iPS-derived human non-hemogenic endothelial cells were produced on the plate according to the method in the above-mentioned 1-1. The medium for the cells containing a CD59 antibody (1 μg/ml) was added at 100 μl/96 well, and the cells were incubated at 37° C. for 1 hr. […] After washing 3 times with PBS(—), and quantitative analysis was performed by a cell analyzer 6500HS (GE Healthcare). The obtained numerical value was calculated as a value relative to the value of 4′,6-diamidino-2-phenylindole (DAPI). […]
The action of complement factor V C5 antibody Eculizumab (AB00296, Absolute Antibody Ltd) on the formation of complement membrane attack complex in iPS cell-derived non-hematopoietic human vascular endothelial cells by using iPS cell-derived liver organoid culture supernatant and human serum was tested. The membrane complex was formed and detected by the method described in the above-mentioned (1-5) except that Eculizumab was added at a concentration of 2.028-676 nano mol/L simultaneously with the serum.

B1: Eculizumab (antibody, chains of the INN, looked up)
heavy: QVQLVQSGAEVKKPGASVKVSCKASGYIFSNYWIQWVRQAPGQGLEWMGEILPGSGSTEYTENFKDRVTMTRDTSTSTVYMELSSLRSEDTAVYYCARYFFGSSPNWYFDVWGQGTLVTVSSASTKGPSVFPLAPCSRSTSESTAALGCLVKDYFPEPVTVSWNSGALTSGVHTFPAVLQSSGLYSLSSVVTVPSSNFGTQTYTCNVDHKPSNTKVDKTVERKCCVECPPCPAPPVAGPSVFLFPPKPKDTLMISRTPEVTCVVVDVSQEDPEVQFNWYVDGVEVHNAKTKPREEQFNSTYRVVSVLTVLHQDWLNGKEYKCKVSNKGLPSSIEKTISKAKGQPREPQVYTLPPSQEEMTKNQVSLTCLVKGFYPSDIAVEWESNGQPENNYKTTPPVLDSDGSFFLYSRLTVDKSRWQEGNVFSCSVMHEALHNHYTQKSLSLSLG
light: DIQMTQSPSSLSASVGDRVTITCGASENIYGALNWYQQKPGKAPKLLIYGATNLADGVPSRFSGSGSGTDFTLTISSLQPEDFATYYCQNVLNTPLTFGQGTKVEIKRTVAAPSVFIFPPSDEQLKSGTASVVCLLNNFYPREAKVQWKVDNALQSGNSQESVTEQDSKDSTYSLSSTLTLSKADYEKHKVYACEVTHQGLSSPVTKSFNRGEC
notes: antibody against the complement component C5, used as a therapeutic agent for atypical hemolytic uremic syndrome
amount of MAC deposition [1]: decreases in a dose-dependent manner
amount of MAC deposition [2]: decreases in a dose-dependent manner
